Data reported in US20090325959A1 (priority 2008, published 2009).

Tested on: human monocytes
Test: Human monocyte cytokine secretion assay (LPS-stimulated)
Type: cell-based
Conditions: potencies approximately 170 nM to 1 μM

SMILES: NC(=O)Cn1ccc2cc(CN3CC[C@@H](Nc4cccc5cnccc45)C3)ccc21 [Compound 2.059, (R)-2-(5-((3-(isoquinolin-5-ylamino)pyrrolidin-1-yl)methyl)-1H-indol-1-yl)acetamide]
- secretion of IL-1β, TNF-α and IL-9 from LPS-stimulated human monocytes: dose-dependently reduced
